Screening data from PubChem.
Most compounds without a hit are left out; they make up all but 2.2% or so of the library.
PDI inh: inhibitors of human protein disulfide isomerase; P07237; PDI insulin aggregation turbidity, A650, 90 min; inhibition, % at 10 µM; 350,000 tested, 0.052% active;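 active means mean inhibition across replicates of 30% or more, whatever share of single replicates reach that level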
S100A4 inh HTS: blocks human S100A4 binding to myosin IIA peptide; 360,000 tested, 0.14% active; inhibition, % at 10.7 µM; P26447; S100A4/TAMRA-MyoIIA peptide fluorescence polarization;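 active means mean inhibition of at least 70% across replicates, with every replicate also reaching that level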
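Material: S100A4 monomer protein | Medium: HEPES pH 7.2 with CaCl2, KCl, NaCl, DTT, Triton | Reagent: Labelled myosin peptide probe, 5 nM | Doses: One dose per compound | Times: 5 min incubation before reading | Benchmarks: Neutral control DMSO, positive control TFP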
SIRT5 block: sirtuin-5 (human) deacylase inhibition | Q9NXA8 | Purified SirT5, succinyl-peptide AMC, trypsin-coupled fluorescence | inhibition, % at 15 µM | 330,000 tested, 1.1% active; in the data active means inhibition above about 15%
FGF22 binding: FGF22 (human) thermal shift binding | AID 651658 | 340,000 tested, 1.5% active | recombinant FGF22 thermal shift, SYPRO orange fluorescence; percent of sucrose octasulfate shift, DMSO zero | activity (Tm shift, normalised), % at 9.99 µM;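 active means mean Tm shift, scaled 0 neutral to 100 positive control, at about 1.3% or above, every replicate too, limit read from the data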
UUG fidelity: yeast start codon fidelity modulation. S. cerevisiae UUG-firefly luciferase reporter, luminescence/redox ratio. activity score, % at 18.7 µM. 0.13% of 350,000 active;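 active means replicate mean at a twofold rise or more, about +100% in these data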;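 further: firefly luciferase made from a UUG start codon reports start codon fidelity; reporter light over untreated wells divided by growth signal over untreated wells; some hits fall short of that in this replicate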
ERp5 block: blocks human ERp5 reductase activity on insulin; inhibition, % at 9.99 µM; 350,000 tested, 0.05% active; AID 651711; ERp5 insulin aggregation, absorbance 650 nm, 90 min; Q15084;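 active means mean replicate inhibition above about 25%, with every replicate also reaching it, limit read from the data, passing the limit was not always enough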
A number is an active result; . = inactive; / = not tested or not shown.

SMILES | PDI inh | S100A4 inh HTS | SIRT5 block | FGF22 binding | UUG fidelity | ERp5 block
O=C(Cc1c(F)cccc1Cl)NCc1cccnc1 | . | . | . | . | . | .
Cc1cc(CNC(=O)Cc2c(F)cccc2Cl)nn1C | . | . | 22.8 | . | / | .
C[C@H](CO)N1C[C@H](C)[C@@H](CN(C)S(=O)(=O)c2cn(C)cn2)Oc2ncc(C3=CCCC3)cc2C1=O | / | . | . | . | . | .
O=C(NCC[C@H]1CC[C@@H](NS(=O)(=O)Cc2ccccc2)[C@H](CO)O1)C1CCC1 | / | . | . | . | / | .
COc1ccc(CN(C)C[C@H]2OCCCC[C@@H](C)Oc3ccc(NC(=O)Nc4ccccc4)cc3C(=O)N([C@H](C)CO)C[C@H]2C)cc1 | / | / | / | . | . | /
CN(C)C(=O)C[C@H]1CC[C@@H]2[C@H](COC[C@@H](O)CN2Cc2ccc(C(F)(F)F)cc2)O1 | / | . | . | . | . | .
CCCCSc1nnc(-c2ccccc2NC(C)=O)c(=O)[nH]1 | . | . | . | 43.5 | / | .
COC(=O)[C@H]1[C@H](CO)[C@H]2Cn3c(ccc(-c4cccc(F)c4)c3=O)[C@H]2N1CC1CC1 | / | . | . | . | . | .
C[C@H]1CN([C@@H](C)CO)C(=O)c2cccc(NC(=O)C3CCCCC3)c2O[C@@H]1CN(C)Cc1ccc(Oc2ccccc2)cc1 | / | . | . | . | . | .
C[C@@H]1CN([C@H](C)CO)C(=O)c2cccc(NC(=O)NC3CCCCC3)c2O[C@@H]1CN(C)Cc1ccc(Oc2ccccc2)cc1 | / | . | 19.7 | . | . | .
C[C@@H]1CN([C@H](C)CO)C(=O)c2cccc(NC(=O)C3CCCCC3)c2O[C@@H]1CN(C)Cc1ccc(Oc2ccccc2)cc1 | / | 143.0 | . | . | . | .
C[C@@H]1CN([C@@H](C)CO)C(=O)c2cccc(NC(=O)Nc3ccccc3)c2O[C@@H]1CN(C)CC1CCCCC1 | / | . | . | . | . | .
C[C@H]1CN([C@@H](C)CO)C(=O)c2cccc(NC(=O)NC3CCCCC3)c2O[C@@H]1CN(C)Cc1ccc(C(=O)O)cc1 | / | . | 24.7 | . | / | .
C[C@H](CO)N1C[C@H](C)[C@@H](CN(C)CC2CCCCC2)Oc2c(NC(=O)Cc3ccccc3)cccc2C1=O | . | . | 20.5 | . | . | .
COC(=O)C[C@@H]1CC[C@@H]2[C@H](COc3ccc(NC(=O)c4cccs4)cc3C(=O)N2C)O1 | / | / | / | . | . | /
O=C(CSc1nc2nn(-c3ccccc3)c(=O)c-2c2n1CCCCC2)c1ccc(O)c(O)c1 | 53.1 | / | / | / | . | /
CCCc1cc(C(=O)N2CCC(N3CCC(C(=O)NC(C)C)CC3)CC2)n(C)n1 | . | . | . | 43.7 | . | .
CC(C)NC(=O)C1CCN(C2CCN(C(=O)C3=CCCC3)CC2)CC1 | . | . | . | . | / | .
Cc1cccc(-c2ccc([C@H]3[C@@H](CO)N4C(=O)CN(C(=O)Cc5ccccn5)C[C@@H]34)cc2)c1 | / | . | . | / | / | .
CN1c2ccccc2Oc2nnc(N3CCN(Cc4ccccc4)CC3)cc21 | . | . | / | 43.4 | . | .
Cc1noc(C)c1S(=O)(=O)Nc1ccc2c(c1)CC(=O)N([C@H](C)CO)C[C@@H](C)[C@@H](CN(C)S(=O)(=O)c1cccs1)O2 | / | . | . | . | . | .
CO[C@@H]1CN(C)C(=O)c2ccc(NS(=O)(=O)c3cn(C)cn3)cc2OC[C@H](C)N(C)C[C@@H]1C | / | . | . | . | . | .
COCC(=O)N1[C@@H](C#N)[C@H](c2ccc(-c3cccc(F)c3)cc2)[C@@H]1CO | / | 116.2 | . | . | . | .
COCC(=O)N1[C@H](CO)[C@@H](c2ccc(-c3cccc(F)c3)cc2)[C@@H]1C#N | / | . | . | . | . | .
C[C@@H]1CN([C@@H](C)CO)C(=O)c2cc(NS(=O)(=O)c3ccc(Cl)cc3)ccc2O[C@@H](C)CCCCO[C@@H]1CN(C)Cc1ccccc1 | / | . | 18.1 | / | . | .
SMILES | PDI inh | S100A4 inh HTS | SIRT5 block | FGF22 binding | UUG fidelity | ERp5 block
C[C@H]1CCCCO[C@H](CN(C)Cc2ccccc2)[C@@H](C)CN([C@@H](C)CO)C(=O)c2cc(NS(=O)(=O)c3ccc(Cl)cc3)ccc2O1 | / | . | . | / | . | .
C[C@@H]1CN([C@H](C)CO)C(=O)c2cc(NS(=O)(=O)c3ccc(Cl)cc3)ccc2O[C@@H](C)CCCCO[C@@H]1CN(C)Cc1ccccc1 | / | . | 20.8 | / | . | .
Cc1ccc(-c2csc3ncnc(NS(=O)(=O)c4ccc(Cl)cc4)c23)cc1 | . | . | . | . | . | .
O=S(=O)(Nc1ncnc2scc(-c3ccc(F)cc3)c12)c1cc(F)ccc1F | . | . | . | 2.8 | / | .
OC[C@H]1[C@H](c2ccc(-c3ccccc3F)cc2)[C@H]2CN(Cc3ccncc3)CCCCN21 | / | . | . | . | . | .
O=C(Nc1ccc2c(c1)[C@H]1C[C@H](CC(=O)N3CCOCC3)O[C@H](CO)[C@H]1O2)c1cccnc1 | / | . | . | . | . | .
CC1CCCC(NC(=O)COC(=O)[C@@H](NC(=O)c2ccco2)C(C)C)C1C (stereo partly drawn) | . | . | . | 44.5 | / | .
CC1CCCC(NC(=O)COC(=O)[C@@H](NC(=O)c2ccc(F)cc2)C(C)C)C1C (stereo partly drawn) | . | . | / | . | . | .
Cc1ccc2nc(SCc3nc4cc(Cl)ccc4c(=O)[nH]3)[nH]c2c1 | . | . | . | 43.1 | / | .
C[C@H](CO)NC(=O)c1nc[nH]c1C(=O)N[C@@H](C)c1ccccc1 | . | . | . | . | . | .
C[C@@H](CO)NC(=O)c1nc[nH]c1C(=O)N[C@H](C)c1ccccc1 | . | . | / | 43.2 | . | .
C[C@H](NC(=O)c1nc[nH]c1C(=O)NC[C@@H](C)O)c1ccccc1 | . | . | / | 43.3 | . | .
CN(C)c1nc(-c2ccccn2)nnc1-c1ccccc1 | . | / | / | / | . | /
CCN(CC)c1nc(-c2ccccn2)nc(-c2ccccc2)c1C#N | . | . | . | 43.3 | / | .
CCC(=O)N1C[C@H](C)[C@@H](OC)CN(C)C(=O)c2ccc(NC(=O)Nc3ccc(Cl)cc3)cc2OC[C@@H]1C | / | . | . | . | / | /
COc1ccc(C(=O)NCC(=O)NCC2COc3ccccc3O2)cc1 (stereo not drawn) | . | / | / | / | . | /
COc1ccc(-n2nc(C(=O)NCC(=O)NCC3COc4ccccc4O3)c3ccccc3c2=O)cc1 (stereo not drawn) | . | . | . | 43.1 | / | .
CCN1CCN(CCNC(=O)c2cc(Cl)c(NC(=O)C3=C(C)OCCS3)cc2OC)CC1 | . | 126.0 | . | . | . | .
CCOC(=O)CNC(=O)C12CC3CC(CC(C3)C1)C2 | . | . | 15.8 | . | / | .
CS(=O)(=O)NN1C(=O)c2ccccc2NC12CCCC2 | . | . | . | 43.0 | / | .
O=C1c2ccccc2NC2(CCCC2)N1NS(=O)(=O)c1ccccc1 | . | . | . | . | / | .
